Data published in patent EP4821932A1, “PHOSPHATE SALT OF 1-((3S,4R)-3-((2-((1-ETHYL-1H-PYRAZOL-4-YL)AMINO)-7H-PYRROLO[2,3-D]PYRIMIDIN-4-YL)OXY)-4-FLUOROPIPERIDIN-1-YL)PROP-2-EN-1-ONE, CRYSTALLINE FORM THEREOF, AND METHOD FOR PREPARATION THEREOF” (dated 2026).
Structures can show the parent of a compound that is named as a salt.

Assays:
[1] = Hygroscopicity analysis (DVS Hygroscopicity); details: 0~95% RH at 25°C; for Hygroscopicity: class by degree of moisture adsorption
Description: The physical properties of the free base (Compound 1) obtained in Preparation Example and the phosphate salt obtained in Example 1 were measured as follows. • 1) Melting Point: Measured with MP70 available from Mettler Toledo. The sample was collected through a capillary, and then allowed to fall freely using a specified glass rod, and repeated several times to ensure that there was no empty space in the capillary tube. Then, the transmittance was measured starting from 168°C and increasing the temperature by 1°C per minute, and the melting point was confirmed. The measurement results are shown in Table 2 below. • 2) Thermogravimetric analysis: Measured using TGA2 available from Mettler Toledo. 50 mg of the sample was placed in an Al2O3 pan, and the temperature was increased from 30.0°C at a rate of 10.00°C per minute to confirm the weight change up to 600.0 °C. Specific thermogravimetric analysis results are shown in FIG. 4. • 3) Hygroscopicity analysis (DVS Hygroscopicity): Measured using DVS Adventure available from Surface Measurement Systems. The sample was exposed to 0~95% RH using DVS at 25°C to confirm the hygroscopicity. Depending on the degree of moisture adsorption, it was divided into Non-hygroscopic (0~0.12%)/Slightly Hygroscopic (0.2~2%)/Moderately Hygroscopic (2.0~15.0%)/Very Hygroscopic (>15.0%). The measurement results are shown in Table 2 below. • 4) Water Solubility: Measured by HPLC available from Waters. The sample was supersaturated with water at 23~26°C, stirred for at least 18 hours, and then allowed to stand for at least 18 hours. The supernatant extracted using a centrifuge was filtered through a 0.45 µm filter. The HPLC area of the filtrate was measured to confirm the solubility. The measurement results are shown in Table 2 below. • 5) Stability: The purity was measured after 2 weeks under the accelerated testing criteria of 40±2°C/75±5% relative humidity. About 1 mg of the phosphoric acid salt solid obtained in Example 1 was dissolved in 1 ml of 100% methanol, and then 700 µl of acetonitrile was added to 300 µl of this solution, diluted, and the purity was measured by HPLC.

Water solubility by HPLC = details: water at 23~26°C, stirred at least 18 hours, left to stand at least 18 hours, 0.45 µm filter
Description: (§1) The physical properties of the free base (Compound 1) obtained in Preparation Example and the phosphate salt obtained in Example 1 were measured as follows. • 1) Melting Point: Measured with MP70 available from Mettler Toledo. The sample was collected through a capillary, and then allowed to fall freely using a specified glass rod, and repeated several times to ensure that there was no empty space in the capillary tube. Then, the transmittance was measured starting from 168°C and increasing the temperature by 1°C per minute, and the melting point was confirmed. The measurement results are shown in Table 2 below. • 2) Thermogravimetric analysis: Measured using TGA2 available from Mettler Toledo. […] Specific thermogravimetric analysis results are shown in FIG. 4. • 3) Hygroscopicity analysis (DVS Hygroscopicity): Measured using DVS Adventure available from Surface Measurement Systems. […] The measurement results are shown in Table 2 below. • 4) Water Solubility: Measured by HPLC available from Waters. […] The HPLC area of the filtrate was measured to confirm the solubility. The measurement results are shown in Table 2 below. • 5) Stability: The purity was measured after 2 weeks under the accelerated testing criteria of 40±2°C/75±5% relative humidity. […]

[2] = Stability under accelerated testing criteria (purity by HPLC); details: purity by HPLC after 2 weeks at 40±2°C/75±5% relative humidity
Description: as §1

Row | Hygroscopicity (degree of moisture adsorption) [1] [%] | Water solubility (Water solubility by HPLC) [mg/mL] | Stability [2] | Structure (SMILES) | Hygroscopicity [1]
1 | 6 | 0.568 | 94.87% (2 weeks) | C=CC(=O)N1CC[C@@H](F)[C@@H](Oc2nc(Nc3cnn(CC)c3)nc3[nH]ccc23)C1 [Free base of Preparation Example] | Moderately Hygroscopic (Moderately Hygroscopic (2.0~15.0%))
2 | 3.4 |  | 99.50% (2 weeks) | C=CC(=O)N1CC[C@@H](F)[C@@H](Oc2nc(Nc3cnn(CC)c3)nc3[nH]ccc23)C1 [Phosphate salt of Example] | Moderately Hygroscopic (Moderately Hygroscopic (2.0~15.0%))
